Results on 1 compound are retold here after PMC10709440, “High-throughput ligand profile characterization in novel cell lines expressing seven heterologous insect olfactory receptors for the detection of volatile plant biomarkers” (Scientific Reports, 2023).

One test has as its system OR71a. Also on record: method as in earlier work. The following applies: DoOR database value; ref DoOR; cited from earlier work.
A further test concerns OR85b. Also on record: method as in earlier work. Particulars: DoOR database value; ref DoOR; cited from earlier work.
Another test deals with T1, Drosophila OR49b (Drosophila melanogaster, UniProt Q9V6H2).
T1 construct: expressed in transfected cells
T1 sequence (Q9V6H2 1-375): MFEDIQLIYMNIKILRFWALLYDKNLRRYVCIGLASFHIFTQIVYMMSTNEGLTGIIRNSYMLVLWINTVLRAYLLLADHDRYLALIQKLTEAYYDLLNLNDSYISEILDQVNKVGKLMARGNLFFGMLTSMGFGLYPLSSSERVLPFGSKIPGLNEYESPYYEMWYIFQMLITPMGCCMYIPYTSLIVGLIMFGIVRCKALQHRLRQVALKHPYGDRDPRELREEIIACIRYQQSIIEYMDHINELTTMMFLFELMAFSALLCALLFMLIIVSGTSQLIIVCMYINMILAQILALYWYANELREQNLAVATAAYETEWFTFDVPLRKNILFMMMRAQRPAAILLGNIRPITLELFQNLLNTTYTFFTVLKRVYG
T1 sequence (Q9VNB5 1-486 partner): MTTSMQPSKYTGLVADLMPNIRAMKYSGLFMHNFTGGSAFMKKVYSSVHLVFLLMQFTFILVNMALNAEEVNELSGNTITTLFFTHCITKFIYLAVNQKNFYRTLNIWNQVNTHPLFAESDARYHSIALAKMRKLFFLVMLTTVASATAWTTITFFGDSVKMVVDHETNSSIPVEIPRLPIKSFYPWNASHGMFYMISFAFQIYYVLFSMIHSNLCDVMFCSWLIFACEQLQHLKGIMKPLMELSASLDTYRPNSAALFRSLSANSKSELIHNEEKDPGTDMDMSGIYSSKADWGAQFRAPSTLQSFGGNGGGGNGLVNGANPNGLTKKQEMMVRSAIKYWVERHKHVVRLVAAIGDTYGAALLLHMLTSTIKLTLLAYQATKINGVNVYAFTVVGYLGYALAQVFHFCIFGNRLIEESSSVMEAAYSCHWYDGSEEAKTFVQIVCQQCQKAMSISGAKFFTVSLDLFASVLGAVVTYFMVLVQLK
The test is described as follows: cell-based. Here is the method: These VUAA1 normalized ∆F values were used to compare the different receptors and ligands.
The concentration-dependent effect of the reference ligands on their cognate cell lines was examined in more detail. Twelve different ligand concentrations were measured on each cell line in an overall 0.01 μM to 100 μM concentration range with 5 repetitions with three technical replicates each time.
Twelve thousand to 18,000 cells were plated into each well of a black wall, transparent bottom 384-well microplate (Greiner) 48 h or 72 h before the measurements and were simultaneously treated with 1 μg/mL doxycycline. […] The plate has 24 columns, thus we could record responses in up to eight different cell lines in each plate. On the day of the experiment, the growth medium was replaced with 20 µL assay buffer/well (140 mM NaCl, 5 mM KCl, 2 mM CaCl2, 1 mM MgCl2, 5 mM HEPES-Na, 20 mM glucose, pH 7.3, 340 mOsm). […] Baseline fluorescence (F0) was recorded for 5 s, after which 7 µL VOC buffer (140 mM NaCl, 5 mM KCl, 2 mM CaCl2, 1 mM MgCl2, 5 mM HEPES-Na, 31 mM glucose, 0.1% DMSO, pH 7.3, 340 mOsm) was injected into each well in one row and the fluorescence response was recorded for an additional 30 s, at a rate of one read/sec. VOC solutions (VOC buffer with 4× concentration of the final measured VOC concentration, 9 µL/well was injected) were measured on the same wells in a second round with the same protocol. Each individual concentration of a specific VOC sample was recorded in three wells for the same cell line on the same microplate. The raw data were exported in xls file format, F0 and FMAX values, and the fluorescence intensity changes (∆F) were calculated in Excel (Microsoft) (Supplementary file Data summary.xlsx) using the following equation: ΔF=FMAX-F0/F0 (see also Fig. 1C). On each plate, we recorded the response of each cell line to 50 µM VUAA1. The average of these ∆F values of each cell line were used to calculate the VUAA1-normalized values for the rest of the plate, by dividing VOC response ∆F values by the average VUAA1 response ∆F value of the corresponding OR cell line. Each VOC-OR combination was measured three times as technical replicates. […] The average of these replicates were used as one ∆F and VUAA1-normalized ∆F in the following analysis.
In the next rows we tested the reference VOCs (or other VOCs known to activate the corresponding cell lines), in order to test if all cell lines are responsive. […]
The recorded FMAX, F0, ∆F, VUAA1-normalized ∆F values, as well as the OR name, the name of the tested sample, and the final concentration for each well were copied into supplementary file Data summary.xlsx, that was used to summarize all the plates recorded. Here, the averages of the measurements were calculated for each receptor-VOC-concentration combination.

The mark [1] stands for this setting: HEK293, read-out: OR49b response (VUAA1-normalized response).

For the compound `CC(=O)CCC=C(C)C` [6-methyl-5-hepten-2-one], the “OR71a DoOR response” value in the test on OR71a was 0.002. Besides, in the test on OR85b, the “OR85b DoOR response” value was 0.75. The “DF norm AVERAGE OR49b” value on Drosophila OR49b is 0. Besides, at Drosophila OR49b (setting [1]), the activation at 1 µM worked out at 0%, the activation at 10 µM was 0% and the activation at 100 µM came out at 0%.
